Key:
Type in all cases: functional
[1] = Resistance index, ratio of IC50 for antimalarial activity against CQ and mefloquine-resistant Plasmodium flaciparum DD2 to IC50 for antimalarial activity against CQ-sensitive Plasmodium falciparum 3D7
[2] = Resistance index, ratio of IC50 for antimalarial activity against artemisinin-resistant Plasmodium flaciparum IPC4912 to IC50 for antimalarial activity against CQ-sensitive Plasmodium falciparum 3D7
[3] = Resistance index, ratio of IC50 for antimalarial activity against CQ-resistant Plasmodium flaciparum K1 to IC50 for antimalarial activity against CQ-sensitive Plasmodium falciparum 3D7

Measured: Ratio IC50

Cc1cc(Nc2ccc(S(=O)(=O)Nc3ccc(C(F)(F)F)cc3)cc2)n2nc(C(F)(F)F)nc2n1
< 1: [1] | [2] | [3]
